IC50 and Activity data for 5 compounds are collected here from ChEMBL document CHEMBL3621085, “Tetrazole regioisomers in the development of nitro group-containing antitubercular agents” (Medchemcomm, 2015).

The structures appear in SMILES notation. pIC50: −log10 of the molar value.

A short description of series [1]: Cytotoxicity against CHOK1 cells assessed as viability after 24 hrs by MTT assay. The series is classed as cell-based, Cricetulus griseus. The settings on record: cho-k1. Background: Tetrazolium dyes change colour on reduction, which living cells bring about.
For series [2], the system named is Salmonella typhimurium. In words: Mutagenic activity in Salmonella typhimurium TA98 assessed as induction of reverse mutation at 50 uM. The settings on record: salmonella enterica subsp. enterica serovar typhimurium.
For series [3], the system named is Salmonella typhimurium. In words: Mutagenic activity in Salmonella typhimurium TA100 assessed as induction of reverse mutation at 50 uM. The settings on record: salmonella enterica subsp. enterica serovar typhimurium.

For orientation: pIC50 means the negative decadic logarithm of the IC50, by convention in mol/L.

With `O=[N+]([O-])c1cc(C[Se]c2nnnn2Cc2cc([N+](=O)[O-])cc([N+](=O)[O-])c2)cc([N+](=O)[O-])c1`, the pIC50 in series [1] was 5.19. With `O=[N+]([O-])c1cc(C[Se]c2nnn(Cc3cc([N+](=O)[O-])cc([N+](=O)[O-])c3)n2)cc([N+](=O)[O-])c1`, in series [1], the pIC50 was 4.40. Consider `O=[N+]([O-])c1ccc(Cn2nnnc2SCc2cc([N+](=O)[O-])cc([N+](=O)[O-])c2)cc1`, for which the Activity entry in series [2] and in series [3] was “Toxic” throughout. Regarding `O=[N+]([O-])c1ccc(Cn2nnc(SCc3cc([N+](=O)[O-])cc([N+](=O)[O-])c3)n2)cc1`, the Activity entry in series [2] and in series [3] was “Toxic” in each case.

Turning to `O=[N+]([O-])c1ccc(Cn2nnnc2[Se]Cc2cc([N+](=O)[O-])cc([N+](=O)[O-])c2)cc1`, the pIC50 in series [1] was 4.57.
